Assay: Solubility in water of the salt
Assay type: physicochemical

Substance: (R)-5-(4-chlorophenyl)-1-isopropyl-2-methyl-4-(3-(4-(4-((4-((1-(phenylthio)-4-(4-((phosphonooxy)methyl)piperidin-1-yl)butan-2-yl)amino)-3-((trifluoromethyl)sulfonyl)phenyl)sulfonamido)phenyl)piperazin-1-yl)phenyl)-1H-pyrrole-3-carboxylic acid meglumine salt
- solubility in water: high

Source: patent publication US20240043456A1, “Crystalline Solid Meglumine Salt Inhibitor of BCL and Methods of Making and Using Same” (Unity Biotechnology, Inc., priority 2020, published 2024)
